# From paper PMC11272584 (Nature Metabolism, 2024)
# Assays:
# [1] = target: T1, GIPR P195R (Homo sapiens, UniProt P48546, P195R); conditions: GIPR P195R (ECL1), mean, n = 5, duplicate
# T1 sequence (P48546 22-466 P195R): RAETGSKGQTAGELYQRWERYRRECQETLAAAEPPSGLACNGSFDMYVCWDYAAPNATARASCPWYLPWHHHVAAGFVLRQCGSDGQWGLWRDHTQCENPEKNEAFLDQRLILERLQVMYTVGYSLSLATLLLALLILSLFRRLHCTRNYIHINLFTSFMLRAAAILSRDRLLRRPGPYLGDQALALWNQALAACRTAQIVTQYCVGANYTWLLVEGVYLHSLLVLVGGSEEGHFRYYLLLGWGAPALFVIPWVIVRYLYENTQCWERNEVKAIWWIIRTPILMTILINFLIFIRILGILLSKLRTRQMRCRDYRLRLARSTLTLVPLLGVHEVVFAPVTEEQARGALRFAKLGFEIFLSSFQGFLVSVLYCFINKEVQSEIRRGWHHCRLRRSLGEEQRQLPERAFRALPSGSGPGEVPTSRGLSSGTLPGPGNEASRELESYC
# [2] = target: T2, GIPR E291K (Homo sapiens, UniProt P48546, E291K); conditions: GIPR E291K (ECL2), mean, n = 3, duplicate
# T2 sequence (P48546 22-466 E291K): T1 sequence (P48546 22-466 P195R) with R174P, E270K
# [3] = target: T3, GIPR R336P (Homo sapiens, UniProt P48546, R336P); assay: cAMP accumulation; assay type: cell-based; set-up: host or cells: HEK293
# T3 sequence (P48546 22-466 R336P): T1 sequence (P48546 22-466 P195R) with R174P, R315P
# [4] = target: T4, GIPR R190Q (Homo sapiens, UniProt P48546, R190Q); conditions: HEK293A, 1 µM GIP minus vehicle, n = 4, P = 0.4579
# T4 sequence (P48546 22-466 R190Q): T1 sequence (P48546 22-466 P195R) with R169Q, R174P
# [5] = target: T5, GIPR T168A (Homo sapiens, UniProt P48546, T168A); conditions: GIPR T168A (2.45), mean, n = 5, duplicate
# T5 sequence (P48546 22-466 T168A): T1 sequence (P48546 22-466 P195R) with T147A, R174P
substance,measurement,setting,value
glucose-dependent insulinotropic polypeptide [GIP],logEC50 (Arrestin),[1]; Hill slope 1.0,-9.0
same,Arrestin (Emax),[1]; normalized to WT GIPR,86
same,logEC50 (Arrestin),[2]; Hill slope 1.0,-8.5
same,Arrestin (Emax),[2]; normalized to WT GIPR,20
same,cAMP (Emax),"[3]; HEK293, GIP(1–42) 1 pM–100 nM, 30 min 37 °C, mean of n = 5",42 % of WT GIPR activity
same,logEC50 (cAMP),"[3]; HEK293, Hill slope 1.0, mean of n = 5",-10.7
same,Mean of ΔBRET,[4],0.0153
same,logEC50 (Arrestin),[5]; Hill slope 1.0,-9.3
same,Arrestin (Emax),[5]; normalized to WT GIPR,22

# Where a chain is given by its changes, count along the chain named.
